These results are taken from patent US10112926B2 (priority 2014, dated 2018).

Protein sequences, listed by entry. Tags and fused reporters are not part of them. Lines headed by an entry give the natural chain unless they say otherwise; changes in a name come on top.
UniProt P42336, whole entry, looked up: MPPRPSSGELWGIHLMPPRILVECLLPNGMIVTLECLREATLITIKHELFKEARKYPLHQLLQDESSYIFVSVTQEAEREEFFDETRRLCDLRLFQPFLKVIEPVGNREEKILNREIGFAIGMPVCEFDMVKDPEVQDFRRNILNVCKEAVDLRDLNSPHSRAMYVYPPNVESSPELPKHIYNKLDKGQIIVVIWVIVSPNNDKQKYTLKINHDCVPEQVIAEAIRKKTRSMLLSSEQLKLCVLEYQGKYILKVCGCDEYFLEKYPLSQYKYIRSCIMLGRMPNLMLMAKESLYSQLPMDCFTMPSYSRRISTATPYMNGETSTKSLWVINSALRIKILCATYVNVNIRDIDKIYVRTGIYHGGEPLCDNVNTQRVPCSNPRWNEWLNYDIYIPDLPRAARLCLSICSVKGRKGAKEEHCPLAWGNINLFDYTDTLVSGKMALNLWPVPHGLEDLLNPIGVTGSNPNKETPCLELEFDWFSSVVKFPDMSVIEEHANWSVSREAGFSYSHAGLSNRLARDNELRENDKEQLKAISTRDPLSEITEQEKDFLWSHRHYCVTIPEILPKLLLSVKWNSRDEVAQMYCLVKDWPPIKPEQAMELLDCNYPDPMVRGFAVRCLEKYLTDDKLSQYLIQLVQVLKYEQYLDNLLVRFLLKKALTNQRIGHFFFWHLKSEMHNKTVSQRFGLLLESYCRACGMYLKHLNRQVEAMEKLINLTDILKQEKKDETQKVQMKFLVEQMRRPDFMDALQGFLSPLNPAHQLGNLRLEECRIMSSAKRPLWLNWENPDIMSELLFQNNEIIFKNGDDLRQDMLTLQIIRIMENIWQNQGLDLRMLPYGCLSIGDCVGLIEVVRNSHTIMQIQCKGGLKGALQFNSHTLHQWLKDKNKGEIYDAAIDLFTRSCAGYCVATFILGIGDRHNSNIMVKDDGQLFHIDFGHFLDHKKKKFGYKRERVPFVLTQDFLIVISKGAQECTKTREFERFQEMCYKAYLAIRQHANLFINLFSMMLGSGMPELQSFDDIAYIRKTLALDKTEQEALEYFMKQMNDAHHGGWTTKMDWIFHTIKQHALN
UniProt P42338: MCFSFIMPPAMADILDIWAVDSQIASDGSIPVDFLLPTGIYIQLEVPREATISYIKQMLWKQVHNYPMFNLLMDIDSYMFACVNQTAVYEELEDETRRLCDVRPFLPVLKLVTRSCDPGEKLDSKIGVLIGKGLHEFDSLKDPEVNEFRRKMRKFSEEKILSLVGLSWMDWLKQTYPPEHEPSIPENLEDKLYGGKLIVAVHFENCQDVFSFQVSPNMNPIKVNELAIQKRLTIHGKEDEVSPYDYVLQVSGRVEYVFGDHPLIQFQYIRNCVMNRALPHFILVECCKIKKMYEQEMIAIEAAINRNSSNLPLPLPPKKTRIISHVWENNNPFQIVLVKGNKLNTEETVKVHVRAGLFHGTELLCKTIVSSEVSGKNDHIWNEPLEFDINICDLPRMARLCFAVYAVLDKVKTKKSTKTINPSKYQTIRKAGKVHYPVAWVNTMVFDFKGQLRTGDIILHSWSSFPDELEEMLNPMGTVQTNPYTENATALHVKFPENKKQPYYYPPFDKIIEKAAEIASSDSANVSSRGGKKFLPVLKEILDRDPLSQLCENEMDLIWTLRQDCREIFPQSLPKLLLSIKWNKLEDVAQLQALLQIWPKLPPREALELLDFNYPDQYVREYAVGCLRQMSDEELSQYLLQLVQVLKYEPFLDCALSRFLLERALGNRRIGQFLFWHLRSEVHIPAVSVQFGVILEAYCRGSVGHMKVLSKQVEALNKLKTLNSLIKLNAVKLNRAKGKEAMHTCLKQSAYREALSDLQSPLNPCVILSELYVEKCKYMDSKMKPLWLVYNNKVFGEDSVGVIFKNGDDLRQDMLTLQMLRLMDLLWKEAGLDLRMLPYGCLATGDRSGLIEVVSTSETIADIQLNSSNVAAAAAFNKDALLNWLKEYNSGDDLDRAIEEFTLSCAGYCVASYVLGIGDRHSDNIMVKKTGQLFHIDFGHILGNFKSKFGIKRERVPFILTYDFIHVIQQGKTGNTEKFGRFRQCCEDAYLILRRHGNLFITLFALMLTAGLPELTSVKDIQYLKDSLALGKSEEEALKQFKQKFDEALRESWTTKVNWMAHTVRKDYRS

For orientation: IC50 means the concentration at which inhibition is half-maximal.

The target of one experiment is PI 3-kinase alpha (Homo sapiens (Human), UniProt P42336). Particulars: read-out: Assay A PI3Kα IC50.
A further experiment deals with PI 3-kinase beta (Homo sapiens (Human), UniProt P42338). As to conditions: read-out: Assay B PI3Kβ IC50.
Experiment [1] deals with PI 3-kinase alpha (Rat-1 pBABEpuro Myr-HA-hp110 alpha cells) (Homo sapiens (Human), UniProt P42336). In words: cell-based. Particulars: Assay H PI3Kα IC50.
Experiment [2] has as its target PI 3-kinase beta (Rat-1 pBABEpuro Myr-HA-hp110 beta cells) (Homo sapiens (Human), UniProt P42338). In words: cell-based. As to conditions: Assay I PI3Kβ IC50.

Where a name gives a salt, the structure may show the parent alone.

Consider `Cc1ncc(-c2cc(-c3cc(S(=O)(=O)NOCC(C)(C)O)ccc3C)cnc2N)o1` [Example 107, 3-(6-amino-5-(2-methyloxazol-5-yl)pyridin-3-yl)-N-(2-hydroxy-2-methylpropoxy)-4-methylbenzenesulfonamide hydrochloride], for which the IC50 came out at 50 nM at PI 3-kinase alpha, 460 nM at PI 3-kinase beta, 750 nM in experiment [1] and 3360 nM in experiment [2].
`Cc1ccc(S(=O)(=O)NCC(C)(C)O)cc1-c1cnc(N)c(-c2ccn(C)c2)c1` [Example 58, 3-(6-Amino-5-(1-methyl-1H-pyrrol-3-yl)pyridin-3-yl)-N-(2-hydroxy-2-methylpropyl)-4-methylbenzenesulfonamide hydrochloride]: the 50% inhibitory concentration (IC50) on PI 3-kinase alpha was 1300 nM; at PI 3-kinase beta, greater than 10000 nM; in experiment [1], greater than 10000 nM; in experiment [2] it was greater than 10000 nM.
`Cc1cc(-c2cc(-c3cc(S(=O)(=O)NCCC(C)(C)O)ccc3C)cnc2N)ccn1` [Example 16, 3-(2-Amino-2′-methyl-[3,4′]bipyridinyl-5-yl)-N-(3-hydroxy-3-methyl-butyl)-4-methyl-benzenesulfonamide]: the IC50 amounted to 100 nM on PI 3-kinase alpha, 6360 nM at PI 3-kinase beta, 2380 nM in experiment [1] and 8250 nM in experiment [2].
For `Cc1ccc(S(=O)(=O)NCC(C)(C)O)cc1-c1cnc(N)c(-c2nc(C3CC3)no2)c1` [Example 80, 3-(6-Amino-5-(3-cyclopropyl-1,2,4-oxadiazol-5-yl)pyridin-3-yl)-N-(2-hydroxy-2-methylpropyl)-4-methylbenzenesulfonamide hydrochloride], the half-inhibitory concentration (IC50) worked out at 900 nM on PI 3-kinase alpha, 4650 nM at PI 3-kinase beta, 5860 nM in experiment [1] and 2970 nM in experiment [2].
The like results for `Cc1noc(-c2cc(-c3cc(S(=O)(=O)NCC4(O)COC4)ccc3C)cnc2N)n1` [Example 56, 3-(6-Amino-5-(3-methyl-1,2,4-oxadiazol-5-yl)pyridin-3-yl)-N-((3-hydroxyoxetan-3-yl)methyl)-4-methylbenzenesulfonamide] were, in that order, 1300 nM, 6300 nM, greater than 10000 nM and 7630 nM.
Taken in the same sequence, the figures for `Cc1cc(-c2cc(-c3cc(S(=O)(=O)N4CC[C@@H](O)C4)ccc3C)cnc2N)on1` [Example 37.24, (R)-1-((3-(6-Amino-5-(3-methylisoxazol-5-yl)pyridin-3-yl)-4-methylphenyl)sulfonyl)pyrrolidin-3-ol] were 1700 nM, 6300 nM, greater than 10000 nM and greater than 10000 nM.
Taken in the same sequence, the figures for `Cc1ccc(S(=O)(=O)N[C@H]2CC[C@H](O)CC2)cc1-c1cnc(N)c(-c2cnn(C)n2)c1` [Example 4.5, trans 3-(6-Amino-5-(2-methyl-2H-1,2,3-triazol-4-yl)pyridin-3-yl)-N-(4-hydroxycyclohexyl)-4-methylbenzene sulfonamide hydrochloride] were 250 nM, 2800 nM, greater than 10000 nM and greater than 10000 nM.
As to `Cc1ccc(S(=O)(=O)NOCC(C)(C)O)cc1-c1cnc(N)c(-c2cnn(CC(F)(F)F)c2)c1` [Example 34, 3-(6-Amino-5-(1-(2,2,2-trifluoroethyl)-1H-pyrazol-4-yl)pyridin-3-yl)-N-(2-hydroxy-2-methylpropoxy)-4-methylbenzenesulfonamide hydrochloride], the IC50 was 70 nM on PI 3-kinase alpha, 850 nM at PI 3-kinase beta, 540 nM in experiment [1] and 1240 nM in experiment [2].
As to `Cc1cc(-c2cc(-c3cc(S(=O)(=O)NC4CC4)ccc3C)cnc2N)on1` [Example 31, 3-(6-Amino-5-(3-methylisoxazol-5-yl)pyridin-3-yl)-N-cyclopropyl-4-methylbenzenesulfonamide], the IC50 at PI 3-kinase alpha is 530 nM; on PI 3-kinase beta, 3630 nM; in experiment [1], 1940 nM; in experiment [2], greater than 10000 nM.
`Cc1cc(-c2cc(-c3cc(S(=O)(=O)N[C@H]4CC[C@H](CO)CC4)ccc3C)cnc2N)ccn1` [Example 77, trans-3-(2-Amino-2′-methyl-[3,4′-bipyridin]-5-yl)-N-(−4-(hydroxymethyl)cyclohexyl)-4-methylbenzenesulfonamide hydrochloride]: the IC50 on PI 3-kinase alpha is 30 nM; on PI 3-kinase beta, 1700 nM; in experiment [1] it was 3580 nM; in experiment [2] it was greater than 10000 nM.
Regarding `Cc1noc(-c2cc(-c3cc(S(=O)(=O)NCC(C)(C)CO)ccc3C)cnc2N)n1` [Example 37.18, 3-(6-Amino-5-(3-methyl-1,2,4-oxadiazol-5-yl)pyridin-3-yl)-N-(3-hydroxy-2,2-dimethylpropyl)-4-methylbenzenesulfonamide hydrochloride], the IC50 at PI 3-kinase alpha is 470 nM; on PI 3-kinase beta it was 220 nM; in experiment [1], greater than 10000 nM; in experiment [2] it was 3360 nM.
Taken in the same sequence, the figures for `Cc1noc(-c2cc(-c3cc(S(=O)(=O)NCC(C)(C)O)c(F)cc3C)cnc2N)n1` [Example 85, 5-(6-Amino-5-(3-methyl-1,2,4-oxadiazol-5-yl)pyridin-3-yl)-2-fluoro-N-(2-hydroxy-2-methylpropyl)-4-methylbenzenesulfonamide] were 300 nM, 1300 nM, greater than 10000 nM and 2980 nM.
Consider `Cc1cc(-c2cc(-c3cc(S(=O)(=O)NCC4(CO)COC4)ccc3C)cnc2N)on1` [Example 50, 3-(6-Amino-5-(3-methylisoxazol-5-yl)pyridin-3-yl)-N-((3-(hydroxymethyl)oxetan-3-yl)methyl)-4-methylbenzenesulfonamide], for which the IC50 is 1600 nM on PI 3-kinase alpha, 4400 nM on PI 3-kinase beta, greater than 10000 nM in experiment [1] and greater than 10000 nM in experiment [2].
For the compound `Cc1ncc(-c2cc(-c3cc(S(N)(=O)=O)ccc3C)cnc2N)o1` [Example 33, 3-(6-Amino-5-(2-methyloxazol-5-yl)pyridin-3-yl)-4-methylbenzenesulfonamide], the IC50 at PI 3-kinase alpha was 130 nM; on PI 3-kinase beta, 3200 nM; in experiment [1] it was greater than 10000 nM; in experiment [2], greater than 10000 nM.
Turning to `Cc1cc(-c2cc(-c3cc(S(=O)(=O)NCCC4(O)CCCC4)ccc3C)cnc2N)on1` [Example 37.16, 3-(6-Amino-5-(3-methylisoxazol-5-yl)pyridin-3-yl)-N-(2-(1-hydroxycyclopentyl)ethyl)-4-methylbenzenesulfonamide], the IC50 was 70 nM at PI 3-kinase alpha, 1200 nM at PI 3-kinase beta, 1160 nM in experiment [1] and 6000 nM in experiment [2].
Taken in the same sequence, the figures for `Cc1noc(-c2cc(-c3cc(S(=O)(=O)NCCC4(O)CCCCC4)ccc3C)cnc2N)n1` [Example 37.31, 3-(6-Amino-5-(3-methyl-1,2,4-oxadiazol-5-yl)pyridin-3-yl)-N-(2-(1-hydroxycyclohexyl)ethyl)-4-methylbenzenesulfonamide] were 50 nM, 2500 nM, 1000 nM and greater than 10000 nM.
The like results for `Cc1cc(-c2cc(-c3cc(S(=O)(=O)NCC4(O)CCCCC4)ccc3C)cnc2N)on1` [Example 37.9] were, in that order, 150 nM, 470 nM, 2350 nM and 3260 nM.
The like results for `Cc1cc(-c2cc(-c3cc(S(=O)(=O)NCCC4(O)CCCCC4)ccc3C)cnc2N)on1` [Example 37.30, 3-(6-Amino-5-(3-methylisoxazol-5-yl)pyridin-3-yl)-N-(2-(1-hydroxycyclohexyl)ethyl)-4-methylbenzenesulfonamide] were, in that order, 100 nM, 1500 nM, 2670 nM and 5380 nM.
On to `Cc1cc(-c2cc(-c3cc(S(=O)(=O)NCC4(C)COC4)ccc3C)cnc2N)on1` [Example 17, 3-[6-Amino-5-(3-methyl-isoxazol-5-yl)-pyridin-3-yl]-4-methyl-N-(3-methyl-oxetan-3-ylmethyl)-benzenesulfonamide hydrochloride], for which the IC50 on PI 3-kinase alpha is 300 nM; at PI 3-kinase beta, 1400 nM; in experiment [1] it was 3310 nM; in experiment [2] it was greater than 10000 nM.
As to `Cc1ccc(S(=O)(=O)NCC(C)(C)O)cc1-c1cnc(N)c(-c2cnn(C)n2)c1` [Example 4.4, 3-(6-amino-5-(2-methyl-2H-1,2,3-triazol-4-yl)pyridin-3-yl)-N-(2-hydroxy-2-methylpropyl)-4-methylbenzenesulfonamide hydrochloride], the half-maximal inhibitory concentration (IC50) at PI 3-kinase alpha was 560 nM; on PI 3-kinase beta, 2950 nM; in experiment [1], greater than 10000 nM; in experiment [2], greater than 10000 nM.
Regarding `Cc1noc(-c2cc(-c3cc(S(=O)(=O)NC4CCOCC4)ccc3C)cnc2N)n1` [Example 49, 3-(6-Amino-5-(3-methyl-1,2,4-oxadiazol-5-yl)pyridin-3-yl)-4-methyl-N-(tetrahydro-2H-pyran-4-yl)benzenesulfonamide], the half-inhibitory concentration (IC50) at PI 3-kinase alpha was 270 nM; at PI 3-kinase beta it was 2100 nM; in experiment [1], greater than 10000 nM; in experiment [2], 9560 nM.
`Cc1ccc(S(=O)(=O)NCCC(C)(C)O)cc1-c1cnc(N)c(-c2cnn(CC(F)(F)F)c2)c1` [Example 3, 3-(6-Amino-5-(1-(2,2,2-trifluoroethyl)-1H-pyrazol-4-yl)pyridin-3-yl)-N-(3-hydroxy-3-methylbutyl)-4-methylbenzenesulfonamide]: the IC50 amounted to 770 nM at PI 3-kinase alpha, 2040 nM at PI 3-kinase beta, 1910 nM in experiment [1] and 3030 nM in experiment [2].
